Only some compounds are listed: those with a hit (about 16% of all), similar ones and a draw of the others.
TDP1 block: TDP1 (human) enzyme inhibition; AID 485290; 0.28% of 350,000 active; Q9NUW8; Potency, µM (doses to about 130 µM), usual class: inhibitors; recombinant TDP1, AlphaScreen DNA substrate cleavage; further: nearly all actives have a fitted effect of over 40% in size
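Enzyme-compound mixtures sat 15 min at room temperature, followed by a 5 min reaction with 15 nM final substrate and 10 min with AlphaScreen beads. Recombinant human Tdp1 was used at 1 nM final.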
TDP1 cell CPT: growth inhibition of DT40 Tdp1-/-;hTDP1 cells with camptothecin (screen for TDP1 inhibitors) | chicken DT40 Tdp1-/-;hTDP1 cells + 20 nM CPT, ATP luminescence, 48 h | Potency, µM (titrated, usually from 46.2 µM), hits mostly inhibitors | 12% of 420,000 active; further: nearly all actives have a fitted effect of over 55% in size
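Cell growth measured by CellTiter-Glo luminescence after a minimum 48 h, 37 C compound exposure with 20 nM CPT in Tdp1-knockout DT40 cells stably expressing hTDP1, seeded 400/well; qHTS titration format.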
miR-21 reporter: raises the signal of a miR-21 reporter | HeLa miR-21 FLuc reporter, luciferase, 48 h | Potency, µM (highest dose often 38.3 µM) | 340,000 tested, under 10 active | AID 2288; active = well fitted rising curve with a large enough effect; inconclusive = small, poorly fitted or top-dose-only effect; inactive = no such curve, though single readings can be large or run the other way;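 note: miR-21 action dims this reporter so a rising signal means less miR-21 action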
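Luminescence from a firefly luciferase reporter carrying a miR-21 binding site downstream, stably expressed under a CMV promoter in HeLa cells that make miR-21 endogenously, reports miRNA modulation after 48 h compound exposure up to approximately 40uM final.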
uPA generation: blocks generation of uPA at the cell surface. cell surface uPA generation assay, qHTS. Potency, µM (titrated, usually from 38.3 µM), hits mostly inhibitors. 0.31% of 330,000 active. AID 540303; active means well fitted inhibition curve with a large enough effect; inconclusive means small, poorly fitted or top-dose-only effect; inactive means no such curve, though single readings can be large or run the other way; tested in mouse RAW 264.7 cells; further: nearly all actives have a fitted effect of over 55% in size
TDP1 cell noCPT: qHTS for Inhibitors of human tyrosyl-DNA phosphodiesterase 1 (TDP1): qHTS in cells in absence of CPT | 15% of 420,000 active | DT40 Tdp1-/- hTDP1 cells, no CPT, ATP luminescence, 48 h | Potency, µM (doses to about 46.2 µM), usual class: inhibitors; further: nearly all actives have a fitted effect of over 55% in size
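No-CPT arm: Tdp1-/-;hTDP1 DT40 cells (400/well) plus compounds, incubated ≥48 hr at 37 °C. Readout CellTiter-Glo luminescence.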
Each line names hits and unclear results; the compound was inactive in the other large screens. Unless noted, the call rests on the fitted dose curve; in most records, active means well fitted curve in the direction sought with a large enough effect; inconclusive means small, poorly fitted or top-dose-only effect, or another doubt; inactive means no such curve, though single readings can be large; an effect the other way counts as inactive or inconclusive.

COc1ccccc1C(=O)C1CCCN(C(=O)CN2CCCCC2=O)C1 (stereo not drawn)	none
Cc1ccc(NS(=O)(=O)c2cccc(C(=O)NCC(c3cccs3)N3CCOCC3)c2)cc1 (stereo not drawn)	TDP1 cell noCPT inconclusive (no result: miR-21 reporter)
CC(C(=O)NCC(=O)Nc1ccc(F)c(F)c1F)N1CCN(c2ccc(O)cc2)CC1 (stereo not drawn)	TDP1 cell CPT inconclusive, uPA generation inconclusive, TDP1 cell noCPT 14.6µM (no result: miR-21 reporter)
COCCNS(=O)(=O)c1ccc(Cl)c(C(=O)NC2CCN(Cc3ccccc3)CC2)c1	none
CNc1cc(OC)c(C(=O)N[C@H]2CCN(Cc3ccccc3)[C@H]2C)cc1Cl	TDP1 cell CPT 10.6µM, TDP1 cell noCPT 11.9µM (no result: TDP1 block, miR-21 reporter, uPA generation)
C=CC[C@@H](CC(=O)N[C@H](CO)Cc1ccccc1)C(=O)N[C@H](COC(=O)[C@@H](CC=C)CC(=O)OC(C)(C)C)Cc1c[nH]c2ccccc12	TDP1 cell CPT inconclusive, uPA generation inconclusive, TDP1 cell noCPT inconclusive (no result: miR-21 reporter)
C=CC[C@@H](CC(=O)N[C@H](CO)Cc1ccccc1)C(=O)N[C@@H](COC(=O)[C@@H](CC=C)CC(=O)OC(C)(C)C)Cc1ccccc1	TDP1 cell CPT 16.4µM, TDP1 cell noCPT inconclusive (no result: miR-21 reporter)
C=CC[C@@H](CC(=O)N[C@@H](CO)Cc1ccccc1)C(=O)NC[C@@H](OC(=O)[C@@H](CC=C)CC(=O)OC(C)(C)C)c1ccccc1	TDP1 cell CPT 20.6µM, TDP1 cell noCPT inconclusive (no result: miR-21 reporter)
C=CC[C@@H](CC(=O)N[C@@H](CO)Cc1ccccc1)C(=O)N[C@@H](COC(=O)[C@@H](CC=C)CC(=O)OC(C)(C)C)Cc1c[nH]c2ccccc12	TDP1 cell CPT 20.6µM, TDP1 cell noCPT 13µM (no result: miR-21 reporter)
C=CC[C@H](CC(=O)N[C@H](CO)Cc1ccccc1)C(=O)N[C@H](COC(=O)[C@@H](CC=C)CC(=O)OC(C)(C)C)Cc1c[nH]c2ccccc12	TDP1 cell CPT inconclusive, TDP1 cell noCPT inconclusive (no result: miR-21 reporter)
C=CC[C@@H](CC(=O)N[C@@H](CO)Cc1ccccc1)C(=O)N[C@@H](COC(=O)[C@H](CC=C)CC(=O)OC(C)(C)C)Cc1c[nH]c2ccccc12	TDP1 cell CPT inconclusive, TDP1 cell noCPT 20.6µM (no result: miR-21 reporter)
C=CC[C@H](CC(=O)N[C@H](CO)Cc1ccccc1)C(=O)N[C@@H](COC(=O)[C@H](CC=C)CC(=O)OC(C)(C)C)Cc1c[nH]c2ccccc12	TDP1 cell CPT 20.6µM, uPA generation inconclusive, TDP1 cell noCPT 23.1µM (no result: miR-21 reporter)
O=C(CCCCCn1c(=S)[nH]c2ccccc2c1=O)NCc1ccc2c(c1)OCO2	TDP1 cell noCPT inconclusive
C[C@@H]1CN([C@@H](C)CO)C(=O)c2cc(NS(C)(=O)=O)ccc2O[C@@H](C)CCCCO[C@H]1CN(C)Cc1ccc2c(c1)OCO2	TDP1 cell noCPT inconclusive (no result: TDP1 block, miR-21 reporter, uPA generation)
C[C@H]1CCCCO[C@@H](CN(C)S(=O)(=O)c2ccc(F)cc2)[C@@H](C)CN([C@@H](C)CO)C(=O)c2cc(NC(=O)Nc3ccc4c(c3)OCO4)ccc2O1	TDP1 cell CPT 18.4µM, TDP1 cell noCPT 9.2µM (no result: TDP1 block, miR-21 reporter, uPA generation)
COc1ccc(S(=O)(=O)N(C)C[C@H]2OCCCC[C@@H](C)Oc3ccc(NC(=O)CCC(F)(F)F)cc3C(=O)N([C@H](C)CO)C[C@@H]2C)cc1	none (no result: TDP1 block, miR-21 reporter, uPA generation)
COc1ccc(S(=O)(=O)N(C)C[C@@H]2OCCCC[C@H](C)Oc3ccc(NC(=O)Nc4ccc(C(F)(F)F)cc4)cc3C(=O)N([C@H](C)CO)C[C@H]2C)cc1	TDP1 cell noCPT 7.31µM (no result: TDP1 block, miR-21 reporter, uPA generation)
C[C@@H]1CCCCO[C@H](CN(C)S(=O)(=O)c2ccc(F)cc2)[C@@H](C)CN([C@H](C)CO)C(=O)c2cc(NC(=O)Nc3ccc(C(F)(F)F)cc3)ccc2O1	TDP1 cell CPT 9.2µM, TDP1 cell noCPT 8.2µM (no result: TDP1 block, miR-21 reporter, uPA generation)
CCN(c1ccccc1C(=O)O)S(=O)(=O)c1ccc2[nH]c(=O)[nH]c2c1	none (no result: TDP1 block)
C[C@H]1CN([C@@H](C)CO)C(=O)c2cc(-c3cccc(F)c3)cnc2O[C@H]1CN(C)C(=O)c1cnccn1	none (no result: TDP1 block, miR-21 reporter, uPA generation)
COc1ccc(C(=O)C[n+]2cc(-c3ccc(OC)cc3)n3c2CCCC3)cc1	TDP1 cell CPT 9.2µM, uPA generation inconclusive, TDP1 cell noCPT 6.51µM
O=C(C[n+]1cc(-c2ccccc2)n2c1CCCCC2)c1ccc(Br)cc1	TDP1 cell CPT 20.6µM, TDP1 cell noCPT 23.1µM
O=C(C[n+]1cc(-c2ccccc2)n2c1CCC2)OCc1ccccc1	none
Cc1ccc(C(=O)C[n+]2cc(-c3ccc(C)cc3)n3c2CCCCC3)cc1	TDP1 cell CPT 0.206µM, miR-21 reporter inconclusive, TDP1 cell noCPT 0.146µM
Cc1ccc(-c2c[n+](Cc3ccc(Cl)c(Cl)c3)c3n2CCC3)cc1	TDP1 cell CPT 0.581µM, TDP1 cell noCPT 0.517µM
Cc1ccccc1NC(=O)C[n+]1cc(-c2ccccc2)n2c1CCC2	none
COc1ccc(C(=O)C[n+]2ccc(-c3nnc4n3CCCCC4)cc2)cc1	none (no result: TDP1 block)
CCCCCCCCNS(=O)(=O)CCNCc1ccc(OC)cc1	TDP1 cell CPT inconclusive, TDP1 cell noCPT inconclusive (no result: TDP1 block, miR-21 reporter)
Cc1ccc(-c2nnc(N3CCN(CCO)CC3)c3ccccc23)cc1	TDP1 cell noCPT inconclusive
COc1cccc(N2CCN(C(=O)c3ccc(CS(=O)Cc4ccc(Cl)cc4)o3)CC2)c1 (stereo not drawn)	TDP1 cell CPT inconclusive, TDP1 cell noCPT 18.4µM
O=C(c1ccc(COc2c(F)c(F)cc(F)c2F)o1)N1CCN(c2ccccc2)CC1	TDP1 cell CPT 18.4µM, TDP1 cell noCPT 11.6µM
O=C(c1ccco1)N1CCN(C(=O)c2ccc(CS(=O)c3cccc(Cl)c3)o2)CC1 (stereo not drawn)	none
Cc1ccc(CS(=O)Cc2ccc(C(=O)N3CCN(c4ccccc4)CC3)o2)cc1 (stereo not drawn)	TDP1 cell CPT 20.6µM, TDP1 cell noCPT inconclusive
COc1cccc(N2CCN(C(=O)c3ccc(CS(=O)Cc4ccccc4Cl)o3)CC2)c1 (stereo not drawn)	TDP1 cell CPT inconclusive, TDP1 cell noCPT inconclusive
O=C(c1ccc(COc2c(F)c(F)c(F)c(F)c2F)o1)N1CCOCC1	TDP1 cell noCPT inconclusive
COc1cccc(N2CCN(C(=O)c3ccc(CS(=O)c4cccc(Cl)c4)o3)CC2)c1 (stereo not drawn)	TDP1 cell CPT 0.517µM, miR-21 reporter inconclusive, TDP1 cell noCPT 0.517µM (no result: uPA generation)
COc1ccc(N2CCN(C(=O)c3ccc(CS(=O)c4cccc(Cl)c4)o3)CC2)cc1 (stereo not drawn)	TDP1 cell CPT 16.4µM, TDP1 cell noCPT 14.6µM (no result: TDP1 block, miR-21 reporter, uPA generation)
COc1ccc(S(=O)Cc2ccc(C(=O)N3CCN(c4cccc(C)c4C)CC3)o2)cc1 (stereo not drawn)	TDP1 cell CPT 0.581µM, uPA generation inconclusive, TDP1 cell noCPT 0.92µM
CC(NC(=O)COc1ccccc1)C(c1ccccc1)N1CCN(C)CC1 (stereo not drawn)	TDP1 cell CPT inconclusive, TDP1 cell noCPT inconclusive

Assay outcomes deposited in PubChem by National Center for Advancing Translational Sciences (NCATS).
